# Reference: publication PMC11648681, “Development of machine learning models for the prediction of the skin sensitization potential of cosmetic compounds” (PeerJ, 2024)
# Test system: THP-1 cells
# Assay: CCK-8 cell viability of THP-1 cells after 48 h compound treatment in HaCaT/THP-1 co-culture
# Assay type: cell-based, human
# Details: single (not double) concentration
# Experimental: The co-culture system was set up according to the following described method. In brief, when the HaCaT cells reached 80–90% confluency, they were digested with 0.25% trypsin (Cytiva, Burlington, MA, USA), collected, and seeded into 96-well plates at a density of 10,000 cells per well for 24 h. THP-1 cells were collected, centrifuged, and re-suspended in fresh RPMI-1640 medium supplemented with 10% FBS at 2 × 10^6 cells/mL. Then cells are distributed into HaCaT-seeded 96 wells plate with 80 μL (1.6 × 10^5 cells/well).
# The compounds listed in Table 1 were dissolved in DMSO to create stock solutions with a concentration of 500 mg/mL. Eleven concentrations were subsequently prepared using two-fold serial dilutions. These stock solutions were then further diluted 250-fold in RPMI-1640 + 10% FBS medium. Finally, 80 μL of the prepared solutions were added 1:1 to the treated 96-well plates and incubated for 48 h at 37 °C and 5% CO2.
# After 48 h of treatment, the treated cells were collected 100 μL cells per well. […] THP-1 cell viability was determined using standard calculation methods.
# The cytotoxicity of 15 test compounds listed in Table 1 was assessed using THP-1 cells across a concentration range of 1,000 to 3.9 μg/mL. Cell viability was assessed after 48 h of treatment using the CCK-8 assay.
structure (smiles),measurement,value
Sc1nc2ccccc2s1 [2-mercaptobenzothiazole],final concentration used (highest concentration that maintained at least 80% cell viability),1.95 µg/mL
"O=[N+]([O-])c1ccc(Cl)c([N+](=O)[O-])c1 [DNCB, 2,4-dinitrochlorobenzene]",final concentration used (highest concentration that maintained at least 80% cell viability),1.95 µg/mL
